Data from ChEMBL document CHEMBL4000185, “Pyrimidine-Based Inhibitors of Dynamin I GTPase Activity: Competitive Inhibition at the Pleckstrin Homology Domain” (J Med Chem, 2017).

Sequences of proteins named here, by UniProt entry; tags and fusion partners are left off. A change or cut given only in a name is not applied to a line headed by its entry.
UniProt P34975: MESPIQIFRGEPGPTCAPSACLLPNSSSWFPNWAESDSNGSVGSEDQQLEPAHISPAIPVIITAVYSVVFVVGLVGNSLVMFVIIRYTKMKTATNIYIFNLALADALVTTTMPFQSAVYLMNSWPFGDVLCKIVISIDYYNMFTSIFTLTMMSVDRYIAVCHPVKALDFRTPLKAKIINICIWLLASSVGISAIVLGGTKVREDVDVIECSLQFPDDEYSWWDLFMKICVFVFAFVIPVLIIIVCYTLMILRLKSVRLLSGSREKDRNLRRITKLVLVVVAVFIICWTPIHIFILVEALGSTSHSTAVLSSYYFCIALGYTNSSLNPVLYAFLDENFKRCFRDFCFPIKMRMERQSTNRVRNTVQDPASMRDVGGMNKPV

Target: Kappa-type opioid receptor (Rattus norvegicus, UniProt P34975)
Test: Displacement of [3H]U 69593 from rat recombinant kappa opioid receptor expressed in CHO cells after 60 mins by scintillation counting

Work on CN(C(=O)Cc1ccc(Cl)c(Cl)c1)C1CCCCC1N1CCCC1 (configuration not stated) yielded an IC50 of 0.68 nM and a Ki of 0.45 nM.
